We go through one substance from publication PMC13600255 (Journal of the American Chemical Society, 2025).

Chains of the proteins cited; added tags and fusions are not shown.
UniProt P31652, whole entry: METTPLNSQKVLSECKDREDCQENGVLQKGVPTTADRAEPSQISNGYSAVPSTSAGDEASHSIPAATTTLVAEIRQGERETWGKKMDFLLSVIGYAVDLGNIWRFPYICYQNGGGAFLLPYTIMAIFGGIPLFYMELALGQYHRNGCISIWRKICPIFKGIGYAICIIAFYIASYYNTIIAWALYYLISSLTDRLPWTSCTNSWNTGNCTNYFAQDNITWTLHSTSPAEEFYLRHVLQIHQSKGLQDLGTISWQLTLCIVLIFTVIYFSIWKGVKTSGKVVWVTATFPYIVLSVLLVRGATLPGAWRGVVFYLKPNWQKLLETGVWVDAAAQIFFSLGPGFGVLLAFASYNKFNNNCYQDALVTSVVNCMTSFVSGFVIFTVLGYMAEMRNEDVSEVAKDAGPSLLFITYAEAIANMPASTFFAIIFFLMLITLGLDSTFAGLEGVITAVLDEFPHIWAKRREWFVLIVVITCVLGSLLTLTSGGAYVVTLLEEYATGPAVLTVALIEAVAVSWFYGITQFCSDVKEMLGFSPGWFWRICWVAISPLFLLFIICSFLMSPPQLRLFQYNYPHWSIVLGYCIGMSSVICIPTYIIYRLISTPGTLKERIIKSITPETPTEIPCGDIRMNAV
UniProt Q05940, whole entry: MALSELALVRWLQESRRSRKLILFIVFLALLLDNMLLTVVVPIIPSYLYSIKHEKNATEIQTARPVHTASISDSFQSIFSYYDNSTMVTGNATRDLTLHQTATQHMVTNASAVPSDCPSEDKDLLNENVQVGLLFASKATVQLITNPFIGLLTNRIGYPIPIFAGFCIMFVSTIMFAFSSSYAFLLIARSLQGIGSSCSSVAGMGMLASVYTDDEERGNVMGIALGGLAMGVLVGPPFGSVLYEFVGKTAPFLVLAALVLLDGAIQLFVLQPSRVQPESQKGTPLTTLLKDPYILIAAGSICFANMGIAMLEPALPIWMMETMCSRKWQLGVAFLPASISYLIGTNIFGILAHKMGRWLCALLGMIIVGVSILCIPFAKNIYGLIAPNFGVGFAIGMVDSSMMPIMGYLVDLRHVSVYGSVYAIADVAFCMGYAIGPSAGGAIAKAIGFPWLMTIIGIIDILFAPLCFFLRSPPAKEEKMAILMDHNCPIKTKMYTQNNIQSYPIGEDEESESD
UniProt P23975, whole entry: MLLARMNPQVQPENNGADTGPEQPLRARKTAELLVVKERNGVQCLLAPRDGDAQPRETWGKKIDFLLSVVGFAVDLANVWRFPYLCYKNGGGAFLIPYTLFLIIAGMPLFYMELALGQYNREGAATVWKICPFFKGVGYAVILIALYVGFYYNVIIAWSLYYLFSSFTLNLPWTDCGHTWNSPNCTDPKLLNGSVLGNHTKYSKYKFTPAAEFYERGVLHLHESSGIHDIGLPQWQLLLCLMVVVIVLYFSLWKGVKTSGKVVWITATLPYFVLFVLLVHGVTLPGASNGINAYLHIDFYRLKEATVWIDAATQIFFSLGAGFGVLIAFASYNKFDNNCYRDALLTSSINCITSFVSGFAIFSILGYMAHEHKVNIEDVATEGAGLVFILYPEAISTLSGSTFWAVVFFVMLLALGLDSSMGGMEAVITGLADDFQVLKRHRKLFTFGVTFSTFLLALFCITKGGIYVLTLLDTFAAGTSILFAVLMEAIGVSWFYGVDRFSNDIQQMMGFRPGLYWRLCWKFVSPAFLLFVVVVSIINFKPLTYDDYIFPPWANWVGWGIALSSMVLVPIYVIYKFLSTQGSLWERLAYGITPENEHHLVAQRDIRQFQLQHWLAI
UniProt Q01827, whole entry: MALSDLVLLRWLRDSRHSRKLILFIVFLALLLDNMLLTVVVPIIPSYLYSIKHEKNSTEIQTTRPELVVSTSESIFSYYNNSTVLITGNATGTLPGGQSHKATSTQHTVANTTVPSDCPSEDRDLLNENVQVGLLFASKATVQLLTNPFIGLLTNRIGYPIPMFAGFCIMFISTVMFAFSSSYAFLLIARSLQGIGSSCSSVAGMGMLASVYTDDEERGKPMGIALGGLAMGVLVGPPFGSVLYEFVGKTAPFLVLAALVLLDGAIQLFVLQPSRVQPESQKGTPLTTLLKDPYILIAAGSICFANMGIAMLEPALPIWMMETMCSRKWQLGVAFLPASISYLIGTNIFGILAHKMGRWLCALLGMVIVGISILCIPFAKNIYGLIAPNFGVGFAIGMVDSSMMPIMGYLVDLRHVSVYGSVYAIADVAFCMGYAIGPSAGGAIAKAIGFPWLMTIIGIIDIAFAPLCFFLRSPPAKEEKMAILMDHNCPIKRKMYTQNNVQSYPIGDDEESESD

Read-outs that look alike come from different tables or passages of the source. A value given as a limit tells only on which side of the number the result lay.

Series [1] deals with T1, rat SERT (rSERT) (Rattus norvegicus, UniProt P31652). As to conditions: read-out: IC50, rSERT reported previously in rat synaptosomes; cited from earlier work.
The next series deals with humans. As to conditions: cited from earlier work.
The conditions of series [2]: opioid-dependent human subjects, ibogaine 10 mg/kg, p.o.; cited from earlier work.
A further series addresses hVMAT2 (Homo sapiens, UniProt Q05940). The experiment in a line: FFN206 fluorescent substrate uptake inhibition in hVMAT2-HEK cells. In kind it is cell-based. As to conditions: read-out: IC50, hVMAT2 (uptake inhibition, FFN206), fluorescent substrate FFN206, n = 4.
The conditions of series [3]: cited from earlier work.
For series [4], the system named is mice. The experiment in a line: Catalepsy bar test in mice.
The next series is described as follows: Lipophilicity. To be noted: Figure S17.
Another series addresses T2, hOCT2 (Homo sapiens, UniProt O15244).
T2 sequence (O15244 1-555): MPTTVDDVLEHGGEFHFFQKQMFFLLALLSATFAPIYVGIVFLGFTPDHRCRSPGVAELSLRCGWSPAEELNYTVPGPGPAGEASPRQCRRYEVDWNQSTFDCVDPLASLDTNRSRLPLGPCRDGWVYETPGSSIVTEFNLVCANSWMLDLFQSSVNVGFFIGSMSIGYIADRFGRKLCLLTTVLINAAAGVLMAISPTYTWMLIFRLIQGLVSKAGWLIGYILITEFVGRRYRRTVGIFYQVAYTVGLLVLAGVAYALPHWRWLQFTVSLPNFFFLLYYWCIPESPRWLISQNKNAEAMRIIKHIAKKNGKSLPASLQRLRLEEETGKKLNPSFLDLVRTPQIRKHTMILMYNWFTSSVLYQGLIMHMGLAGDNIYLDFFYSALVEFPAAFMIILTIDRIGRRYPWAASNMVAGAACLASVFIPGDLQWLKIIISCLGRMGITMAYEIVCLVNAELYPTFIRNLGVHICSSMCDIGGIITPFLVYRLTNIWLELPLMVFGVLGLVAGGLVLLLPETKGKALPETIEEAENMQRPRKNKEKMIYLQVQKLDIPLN
The experiment in a line: ASP+ fluorescent substrate uptake inhibition at OCT2. In kind it is cell-based. As to conditions: read-out: IC50, hOCT2.

The next series deals with hNET (Homo sapiens, UniProt P23975). The series can be described thus: APP+ fluorescent substrate uptake inhibition in hNET-HEK cells. In kind it is cell-based. As to conditions: read-out: IC50, hNET.
Series [5] can be described thus: Ibogaine plasma and brain exposure in humans. In kind it is in vivo. To be noted: human, 10 mg/kg p.o., plasma protein binding correction applied.
Series [6] relates to mice. The experiment in a line: Open field locomotor activity test in mice. To be noted: s.c., dose-response.
Series [7] has as its target T1, rat SERT (rSERT). The series can be described thus: [3H]5-HT uptake inhibition in rat brain synaptosomes. In kind it is biochemical.
In another series the target is rat VMAT2 (rVMAT2) (Rattus norvegicus, UniProt Q01827). The experiment in a line: [3H]5-HT uptake inhibition in rat brain synaptic vesicular fraction. Type of series: biochemical. As to conditions: read-out: Uptake Inhibition at VMAT2 IC50, [3H]5-HT (rVMAT2); rat brain synaptic vesicles.
A short description of series [8]: Pharmacokinetics in mice, estimated free drug concentration in brain. As to conditions: rodents (rats ref 11 and mice, Figure S11).

Take ibogaine: the IC50 (in general, the concentration that inhibits the measured activity by half) on rat SERT (rSERT) [1] is 3.15 µM; at hVMAT2 it was 0.39 µM; on hOCT2, 9.31 µM; at hNET it was 3.67 µM; on rat SERT (rSERT) [7] (read-out: Uptake Inhibition at SERT IC50, [3H]5-HT (rSERT)), 3.04 µM; at rat SERT (rSERT) [7] (read-out: [3H]5-HT Uptake Inhibition IC50 ± SD, SERT, n = 3), 3.04 ± 0.291 µM. Besides, on rat VMAT2 (rVMAT2), the IC50 turned out to be 0.56 µM. The Ataxia entry in the series on humans (high doses > 10 mg/kg, p.o.) is recorded as “can induce ataxia”. Further, the Anesthesia-like states entry in the series on humans (very high doses > 20 mg/kg) is reported as “can lead to anesthesia-like states”. The Median plasma concentration in [2] was ~ 4.8 μM. Moreover, in series [3], the “Plasma protein binding, available” value is given as 35%. Further, the “Plasma protein binding, bound” value in series [3] was 65%. For the same substance, the Tremors entry in the series on mice [4] (30 mg/kg and higher) is “strong tremors”. In the series on mice [4] (s.c., dose-response), the “Catalepsy in bar test” value is “did not induce catalepsy”. The “Difference in lipophilicity, ibogaine versus noribogaine” value in the series “Lipophilicity” worked out at 1.5 log D units. Also, the Plasma free concentration in series [5] is recorded as ~ 1.7 μM. The “Locomotor activity / sedation in open field test” value in the series with mice [6] was “suppressing locomotion”. Moreover, the “Concentration of free drug in the brain over plasma” value in [8] is on record as over 4 fold.
